Earlier results, collected in PMC10947368.

The chains behind the UniProt entries cited, without tags or fusion partners. Residues count along the entry.
UniProt P01589, 22-240, chain 1 of 3: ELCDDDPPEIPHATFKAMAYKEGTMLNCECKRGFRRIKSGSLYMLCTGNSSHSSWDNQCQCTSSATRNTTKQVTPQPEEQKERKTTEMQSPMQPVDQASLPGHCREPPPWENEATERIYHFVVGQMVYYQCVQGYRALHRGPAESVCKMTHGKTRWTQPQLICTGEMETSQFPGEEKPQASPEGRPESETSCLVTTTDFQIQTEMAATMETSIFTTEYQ
UniProt P60568, 21-153: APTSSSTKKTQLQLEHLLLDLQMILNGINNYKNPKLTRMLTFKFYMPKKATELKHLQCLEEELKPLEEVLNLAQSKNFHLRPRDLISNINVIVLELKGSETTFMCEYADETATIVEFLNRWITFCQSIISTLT

Biological target: IL-2Rα/IL-2Rβ/γc heterotrimeric receptor (Homo sapiens) (UniProt P01589)

## Interleukin-2 (from UniProt P60568)
  Kd: 0.01 nM
